# scFv variants of Ab-91 (heavy chain) against a SARS-CoV-2 spike peptide

The measurements come from Engelhart et al. 2022 (doi:10.1038/s41597-022-01779-4) through the FLAb antibody collection.

The target is the same throughout: PDVDLGDISGINAS, from the HR2 region of SARS-CoV-2 spike.

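The starting antibody came from a phage panning campaign against this peptide. In library AAYL51, one, two or three CDR residues were substituted; doubles and triples were drawn at random. AlphaSeq pools MATa yeast showing the antibodies with MATalpha yeast showing the peptide. Pairs that bind mate more often; barcode pairs of the diploids are counted by sequencing. Each replicate has its own calibration line, from reference interactions of the BCL2 family. There are three technical replicates.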

Each scFv is VL, three GGGGS repeats, VH, as in the parent Ab-91, and differs from it in the CDRs of the heavy chain only.
VL: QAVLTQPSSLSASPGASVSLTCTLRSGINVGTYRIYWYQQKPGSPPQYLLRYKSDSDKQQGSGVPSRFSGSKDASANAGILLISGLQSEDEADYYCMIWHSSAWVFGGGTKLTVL
VH: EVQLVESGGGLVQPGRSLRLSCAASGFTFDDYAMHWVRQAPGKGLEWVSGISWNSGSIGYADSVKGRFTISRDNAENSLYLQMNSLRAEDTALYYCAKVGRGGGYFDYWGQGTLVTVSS

Variants are written as CDR1, CDR2 and CDR3 of the heavy chain (limits as in the source). Parent: GFTFDDYAMH, GISWNSGSIGYADSVK, VGRGGGYFDY.
Affinities are written as log10 Kd with Kd in nM; a lower number is a better binder.
"ND" means that the variant was in the library but no mating with the target was seen in that replicate; the authors take this as a sign of poor binding, and no number exists.
Nonspecific signal, from three strains lacking the peptide, appeared in 21% of pairings of library AAYL51, centred on 4.54 (5% of these signals below 3.26); values are not corrected for it. For each scFv, signals with the empty controls are counted beside the result, with their mean in brackets.
For reference, the parent read 1.86 as the reference entry and 0.88 as a member of this library.

{"CDR-H1": "GFTFDDYAMH", "CDR-H2": "GISFNSGSIGYADSVK", "CDR-H3": "VGYGGGYFDY", "log10 Kd (nM) by replicate": "2.56 2.36 2.01", "signal with controls": "4/9 (4.53)"}
{"CDR-H1": "GFVFDDYAMH", "CDR-H2": "GISWNSGSIGYADSVK", "CDR-H3": "VGDGGGWFDY", "log10 Kd (nM) by replicate": "ND ND ND", "signal with controls": "1/9 (5.34)"}
{"CDR-H1": "GFTFDDYASH", "CDR-H2": "GISWNYGSIGYADSVK", "CDR-H3": "VGRGGGYFDY", "log10 Kd (nM) by replicate": "3.83 ND ND", "signal with controls": "1/9 (3.29)"}
{"CDR-H1": "GFTFSDPAMH", "CDR-H2": "GISWISGSIGYADSVK", "CDR-H3": "VGRGGGYFDY", "log10 Kd (nM) by replicate": "ND ND ND", "signal with controls": "0/9"}
{"CDR-H1": "GFTFDDYAMH", "CDR-H2": "GISWNSGCCGYADNVK", "CDR-H3": "VGRGGGYFDY", "log10 Kd (nM) by replicate": "ND ND ND", "signal with controls": "1/9 (3.17)"}
{"CDR-H1": "GFTFDDYAMV", "CDR-H2": "GISWNSGSIGYADSVK", "CDR-H3": "VGRGGGYFDY", "log10 Kd (nM) by replicate": "ND 3.30 ND", "signal with controls": "0/9"}
{"CDR-H1": "GFLFDDYAMH", "CDR-H2": "GISWNSGSIGYADSVK", "CDR-H3": "VGLGGAYFDY", "log10 Kd (nM) by replicate": "ND 4.75 ND", "signal with controls": "0/9"}
{"CDR-H1": "GFTFDDYAMH", "CDR-H2": "RISWNSGSIGYADSVK", "CDR-H3": "VGRGGGYFDY", "log10 Kd (nM) by replicate": "ND 5.00 5.33", "signal with controls": "2/9 (4.20)"}
{"CDR-H1": "GFTFDDPAMH", "CDR-H2": "GISWTSGSIGYADSVK", "CDR-H3": "VGRKGGYFDY", "log10 Kd (nM) by replicate": "ND ND 4.63", "signal with controls": "3/9 (4.30)"}
{"CDR-H1": "GFTQDDYAMH", "CDR-H2": "GISWNSGSIGSADSVK", "CDR-H3": "VGRTGGYFDY", "log10 Kd (nM) by replicate": "5.92 ND ND", "signal with controls": "3/9 (5.11)"}
{"CDR-H1": "GFTFVDYAMH", "CDR-H2": "GISWNSGSFGIADSVK", "CDR-H3": "VGRGGGYFDY", "log10 Kd (nM) by replicate": "3.43 4.41 4.56", "signal with controls": "3/9 (4.90)"}
{"CDR-H1": "GFTFDDYAMH", "CDR-H2": "GISWISGSFGYADSFK", "CDR-H3": "VGRGGGYFDY", "log10 Kd (nM) by replicate": "ND ND 4.79", "signal with controls": "1/9 (4.34)"}
{"CDR-H1": "GFTFDDLAMH", "CDR-H2": "GISWNTGSIGYADSVK", "CDR-H3": "VGQGGGYFDY", "log10 Kd (nM) by replicate": "ND ND ND", "signal with controls": "0/9"}
{"CDR-H1": "GFTFDDYNMH", "CDR-H2": "GPEWNSGSIGYADSVK", "CDR-H3": "VGRGGGYFDY", "log10 Kd (nM) by replicate": "ND ND ND", "signal with controls": "2/9 (4.31)"}
{"CDR-H1": "GFTFDDYAMH", "CDR-H2": "GISWNSGSIGWADDVK", "CDR-H3": "VTRGGGYFDY", "log10 Kd (nM) by replicate": "4.26 4.73 5.21", "signal with controls": "6/9 (4.71)"}
{"CDR-H1": "GFTFDDYAMH", "CDR-H2": "GIGWNSGSIGYADSQK", "CDR-H3": "VGRGGGYFDY", "log10 Kd (nM) by replicate": "ND ND ND", "signal with controls": "1/9 (3.23)"}
{"CDR-H1": "GLTFYDYAMH", "CDR-H2": "GISWNSGSIGYADSVK", "CDR-H3": "VGRLGGYFDY", "log10 Kd (nM) by replicate": "4.76 4.61 ND", "signal with controls": "2/9 (4.42)"}
{"CDR-H1": "GFTFSDYAMH", "CDR-H2": "GISWNKGSIGYADSVK", "CDR-H3": "TGRGGGYFDY", "log10 Kd (nM) by replicate": "4.43 ND ND", "signal with controls": "1/9 (3.20)"}
{"CDR-H1": "GFTFDDYAMH", "CDR-H2": "GISGNWGSIGYADSVK", "CDR-H3": "VFRGGGYFDY", "log10 Kd (nM) by replicate": "5.81 3.68 ND", "signal with controls": "1/9 (5.52)"}
{"CDR-H1": "GFTFTWYAMH", "CDR-H2": "GISWNSGSIGYADSVK", "CDR-H3": "VGRGGGYFEY", "log10 Kd (nM) by replicate": "3.51 4.38 3.52", "signal with controls": "4/9 (5.20)"}
{"CDR-H1": "GFTFGDYAMH", "CDR-H2": "GISWNSGSIGYADSMK", "CDR-H3": "VRRGGGYFDY", "log10 Kd (nM) by replicate": "ND ND ND", "signal with controls": "0/9"}
{"CDR-H1": "GFTFDDYAMH", "CDR-H2": "GISWLSGNINYADSVK", "CDR-H3": "VGRGGGYFDY", "log10 Kd (nM) by replicate": "4.56 4.05 4.40", "signal with controls": "4/9 (4.14)"}
{"CDR-H1": "GFTFDDYEMH", "CDR-H2": "GISWNSGDIGYADTVK", "CDR-H3": "VGRGGGYFDY", "log10 Kd (nM) by replicate": "5.68 ND ND", "signal with controls": "4/9 (3.95)"}
{"CDR-H1": "GFTFDDYAMR", "CDR-H2": "GISWNIGLIGYADSVK", "CDR-H3": "VGRGGGYFDY", "log10 Kd (nM) by replicate": "4.69 ND ND", "signal with controls": "4/9 (5.02)"}

For reference, 3 entries of the list once more:

CDR-H1,CDR-H2,CDR-H3,log10 Kd (nM) by replicate,signal with controls
GFVFDDYAMH,GISWNSGSIGYADSVK,VGDGGGWFDY,ND ND ND,1/9 (5.34)
GFTFSDYAMH,GISWNKGSIGYADSVK,TGRGGGYFDY,4.43 ND ND,1/9 (3.20)
GFTFDDYNMH,GPEWNSGSIGYADSVK,VGRGGGYFDY,ND ND ND,2/9 (4.31)